TDP1 cell noCPT: qHTS for Inhibitors of human tyrosyl-DNA phosphodiesterase 1 (TDP1): qHTS in cells in absence of CPT; DT40 Tdp1-/- hTDP1 cells, no CPT, ATP luminescence, 48 h; Potency, µM (top dose mostly 46.2 µM), most hits filed as inhibitors; actives 15% (n = 420,000); AID 686978, 2013; also: nearly all actives have a fitted effect of over 55% in size
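Chicken DT40 Tdp1-/- cells complemented with human TDP1, screened without camptothecin (DMSO vehicle only), 400 cells/well. Compounds pin-transferred, cells incubated at 37 °C for at least 48 hr. Growth read as ATP-dependent luminescence (CellTiter-Glo, 30 min at RT).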
TDP1 block: TDP1 (human) enzyme inhibition. Q9NUW8. recombinant TDP1, AlphaScreen DNA substrate cleavage. Potency, µM (series often up to 130 µM), hits mostly inhibitors. actives 0.28% (n = 350,000); also: nearly all actives have a fitted effect of over 40% in size
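Recombinant E. coli-expressed Tdp1 (1 nM) preincubated with compound 15 min at RT, then 5'-biotin/3'-phosphotyrosine-FITC DNA substrate (15 nM) added for 5 min. AlphaScreen beads (10 ug/ml) added, 10 min RT; tyrosine-FITC cleavage read as signal loss.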
miR-21 reporter: miR-21 reporter, rising signal | HeLa miR-21 FLuc reporter, luciferase, 48 h | Potency, µM (top dose mostly 38.3 µM) | 340,000 tested, under 10 active | AID 2288; active = well fitted rising curve with a large enough effect; inconclusive = small, poorly fitted or top-dose-only effect; inactive = no such curve, though single readings can be large or run the other way;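 note: miR-21 action dims this reporter so a rising signal means less miR-21 action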
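HeLa cells stably expressing CMV-driven firefly luciferase with a downstream miR-21 binding sequence, endogenously expressing miR-21, were treated with titrations (up to about 40uM final) for 48 hours at 37 degree Celsius. Luciferase luminescence was read after lysis.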
uPA generation: blocks generation of uPA at the cell surface. cell surface uPA generation assay, qHTS. Potency, µM (doses to about 38.3 µM), most hits filed as inhibitors. actives 0.31% (n = 330,000). AID 540303; active = well fitted inhibition curve with a large enough effect; inconclusive = small, poorly fitted or top-dose-only effect; inactive = no such curve, though single readings can be large or run the other way; tested in mouse RAW 264.7 cells; also: nearly all actives have a fitted effect of over 55% in size
TDP1 cell CPT: growth inhibition of DT40 Tdp1-/-;hTDP1 cells with camptothecin (screen for TDP1 inhibitors); actives 12% (n = 420,000); AID 686979; Potency, µM (top dose mostly 46.2 µM), usual class: inhibitors; chicken DT40 Tdp1-/-;hTDP1 cells + 20 nM CPT, ATP luminescence, 48 h; also: nearly all actives have a fitted effect of over 55% in size
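Cell growth measured by CellTiter-Glo luminescence after a minimum 48 h, 37 C compound exposure with 20 nM CPT in Tdp1-knockout DT40 cells stably expressing hTDP1, seeded 400/well; qHTS titration format.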
Of the large screens only hits and unclear results are named; the others gave an inactive call. The list is not random: actives were taken first. Their share in the collection is about 16%. Unless noted, calls follow the shape of the dose curve; as a rule, active = well fitted curve in the direction sought with a large enough effect; inconclusive = small, poorly fitted or top-dose-only effect, or another doubt; inactive = no such curve, though single readings can be large; an effect the other way counts as inactive or inconclusive.

C[C@@]1(O)C(O)[C@@H](CO)O[C@H]1n1cnc2c(NC3CCCC3)nc(Cl)nc21 (some centres not stated)	none (no result: TDP1 cell noCPT, miR-21 reporter, uPA generation, TDP1 cell CPT)
Nc1nc(NC2CC2)c2ncn([C@@H]3C=C[C@@H](CO)C3)c2n1	TDP1 cell noCPT 15µM, TDP1 cell CPT 12µM (no result: TDP1 block, miR-21 reporter, uPA generation)
COc1ccc(CC(=O)Nc2ccc(C(=O)Nc3nccs3)cc2)cc1OC	none
CCN1CCN(c2ccc(S(=O)(=O)N3CCOCC3)cc2NC(=O)c2ccccc2SC)CC1	none (no result: miR-21 reporter)
CCN1CCN(c2ccc(S(=O)(=O)N3CCOCC3)cc2NC(=O)CC(C)C)CC1	none (no result: miR-21 reporter)
CCN1CCN(c2ccc(S(=O)(=O)N3CCOCC3)cc2NC(=O)c2cc(Cl)nc3ccccc23)CC1	TDP1 cell noCPT 16µM, TDP1 cell CPT inconclusive (no result: miR-21 reporter)
CCC(Oc1ccccc1)C(=O)Nc1ccccc1N1CCCCC1 (configuration not stated)	TDP1 cell noCPT inconclusive, TDP1 cell CPT inconclusive
CC(Oc1ccc(F)cc1)C(=O)Nc1ccccc1N1CCCCC1 (configuration not stated)	TDP1 cell noCPT 16µM, TDP1 cell CPT inconclusive
CC(Oc1ccc(F)cc1)C(=O)Nc1cc(S(=O)(=O)N2CCCCC2)ccc1N1CCN(C)CC1 (configuration not stated)	TDP1 cell noCPT inconclusive, TDP1 cell CPT 23µM (no result: TDP1 block, miR-21 reporter)
CCN1CCN(c2ccc(S(=O)(=O)N3CCOCC3)cc2NC(=O)C(C)Oc2ccc(Cl)cc2)CC1 (configuration not stated)	TDP1 cell noCPT 18µM, TDP1 cell CPT inconclusive (no result: miR-21 reporter)
N#Cc1ccccc1NC(=O)COC(=O)CN1C(=O)C2CCCCC2C1=O (configuration not stated)	TDP1 cell noCPT inconclusive, TDP1 cell CPT inconclusive (no result: miR-21 reporter)
CCCCn1c(CCNC(=O)c2ccc(F)cc2)nc2ccccc21	TDP1 cell noCPT inconclusive (no result: uPA generation)
CCN(C(=O)CN1c2ccccc2CC1C)c1c(N)n(Cc2ccccc2)c(=O)[nH]c1=O (configuration not stated)	none
OCCCNc1nc(-c2ccc(Cl)cc2)nnc1-c1ccc(Br)cc1	TDP1 cell noCPT 21µM, TDP1 cell CPT 23µM
O=[N+]([O-])c1ccc(-c2nnc(-c3ccccc3)c(NCCCO)n2)cc1	TDP1 cell noCPT 16µM, TDP1 cell CPT 21µM
COc1cccc(NC(=O)CN(C)S(=O)(=O)c2ccc3c(c2)CCC(=O)N3)c1	none (no result: TDP1 block)
COc1ccc(S(=O)(=O)Nc2cccc(-c3ccc(N4CCCCCC4)nn3)c2)cc1F	TDP1 cell noCPT inconclusive, TDP1 cell CPT inconclusive (no result: uPA generation)
C[C@H]1COc2cccc(N3CCSCC3)c2S(=O)(=O)N1	none (no result: TDP1 block, miR-21 reporter, uPA generation)
CN(C(=O)COC(=O)c1n[nH]c2ccccc12)C1CCS(=O)(=O)C1 (configuration not stated)	none
N#Cc1c(NC(=S)NC(=O)c2ccccc2)sc2c1CCCCC2	TDP1 cell noCPT inconclusive, TDP1 cell CPT inconclusive (no result: miR-21 reporter, uPA generation)
N#Cc1c(NC(=O)c2cnccn2)sc2c1CCCC2	TDP1 cell noCPT 12µM, TDP1 cell CPT 9.2µM (no result: TDP1 block)
Cn1ncc(Cl)c1C(=O)NC(=S)Nc1sc2c(c1C#N)CCCCC2	TDP1 cell noCPT inconclusive, TDP1 cell CPT 21µM
N#Cc1c(NC(=S)NC(=O)c2ccccc2)sc2c1CCCC2	TDP1 cell noCPT inconclusive, TDP1 cell CPT inconclusive
CC(C)c1cc(C(=O)Nc2sc3c(c2C#N)CCC3)no1	TDP1 cell noCPT 23µM, TDP1 cell CPT inconclusive (no result: uPA generation)
N#Cc1c(NC(=O)c2ccccc2)sc2c1CCC2	TDP1 cell noCPT 16µM, TDP1 cell CPT 18µM
O=C(CSCCO)Nc1cc(C(F)(F)F)ccc1Cl	none (no result: uPA generation)
N#Cc1c(NC(=O)c2cccnc2)sc2c1CCC2	TDP1 cell noCPT inconclusive, TDP1 cell CPT 23µM
NC(=O)c1c(NC(=O)c2ccc([N+](=O)[O-])o2)sc2c1CCCC2	TDP1 cell noCPT inconclusive, TDP1 cell CPT inconclusive
NC(=O)c1c(NC(=O)c2cccnc2)sc2c1CCCC2	none
N#Cc1c(NC(=O)c2ccc([N+](=O)[O-])o2)sc2c1CCC2	TDP1 cell noCPT 10µM, uPA generation inconclusive, TDP1 cell CPT 18µM
CCOC(=O)C1=CN(CC)S(=O)(=O)NC1c1ccc2ccccc2c1 (configuration not stated)	none (no result: miR-21 reporter)
Cc1cccc(CN(C)C[C@@H]2OCc3cnnn3CCCC(=O)N([C@@H](C)CO)C[C@H]2C)c1	none (no result: TDP1 block, miR-21 reporter, uPA generation)
O=C1C2CCCCN2C(=O)N1CCN1CCN(c2ccc(F)cc2)CC1 (configuration not stated)	TDP1 cell noCPT inconclusive (no result: TDP1 block, miR-21 reporter)
CC(=O)N1CCc2cc(CNS(=O)(=O)c3ccc(F)cc3)ccc21	none (no result: uPA generation)
CC(=O)N1CCc2cc(CNS(=O)(=O)c3ccc(Br)s3)ccc21	TDP1 cell noCPT 21µM, TDP1 cell CPT inconclusive (no result: uPA generation)
CC(=O)N1CCc2cc(CNS(=O)(=O)c3ccc(Cl)s3)ccc21	TDP1 cell noCPT 15µM, TDP1 cell CPT inconclusive (no result: uPA generation)
CC1(C)Cc2c(cnn2-c2ccccc2)C(NC(=O)CCCn2cncn2)C1 (configuration not stated)	TDP1 cell CPT inconclusive
CCc1nc(-c2ccc(OC)c(OC)c2)cc2cc(OC)c(OC)cc12	TDP1 cell noCPT 21µM, TDP1 cell CPT 16µM
COc1ccc(CCN2C(=O)CC(NNc3ccc([N+](=O)[O-])cc3)C2=O)cc1OC (configuration not stated)	TDP1 cell noCPT 21µM, TDP1 cell CPT 21µM
CCc1nnc(NC(=O)Cc2cc(OC)c(OC)c(OC)c2)s1	none
COc1ccc(CCN2C(=O)C3C4C=CC(C3C2=O)C2C(=O)N(CCc3ccc(OC)c(OC)c3)C(=O)C42)cc1OC (configuration not stated)	TDP1 cell noCPT inconclusive, TDP1 cell CPT 10µM (no result: uPA generation)
COc1ccc(CCN2C(=O)C3C4C=CC(C5CC45)C3C2=O)cc1OC (configuration not stated)	none
COc1ccc(CCNC2CC(=O)N(CCc3ccc(OC)c(OC)c3)C2=O)cc1OC (configuration not stated)	none
COc1ccc(-c2csc(NC(=O)Cc3cc(OC)c(OC)c(OC)c3)n2)cc1OC	TDP1 cell noCPT 18µM, TDP1 cell CPT 21µM
COc1cc(CC(=O)Nc2nc(C)cs2)cc(OC)c1OC	TDP1 cell noCPT 21µM, TDP1 cell CPT 12µM
COc1ccc(NC(=O)c2oc3ccccc3c2NC(=O)c2cc(=O)c3cc(Cl)ccc3o2)cc1	none (no result: uPA generation)
CCC(C)(C)C1CCC2(CC1)NC(=O)N(CC(=O)NCCc1ccc(OC)c(OC)c1)C2=O (configuration not stated)	TDP1 cell noCPT 12µM, TDP1 cell CPT inconclusive (no result: miR-21 reporter)
COc1ccc(CCNC(=O)C/C(C)=N/NC(=O)C23CC4CC(CC(C4)C2)C3)cc1OC	TDP1 cell noCPT 7.3µM, TDP1 cell CPT inconclusive
COc1ccc(-c2csc(NC(=O)CCN3C(=O)C4CC=CCC4C3=O)n2)cc1OC (configuration not stated)	TDP1 cell noCPT 18µM, TDP1 cell CPT 21µM (no result: miR-21 reporter)
